The values below come from paper PMC11800946.

Assay [1] deals with human α-synuclein (human) (UniProt P37840).
The target is the same in assay [2]. The source holds these as a separate data set.

In turn, “mouse α-synuclein (from UniProt O55042 1-140) (natural protein)” gave an ELISA of α-syn aggregates in lysates of human-PAC-wt-SNCA+/+/Snca−/− neurons after 14 days with PFFs, against human PFFs in assay [1] of 2.5 times. In addition, the pS129–α-syn pathology in human iPSC-derived dopaminergic neurons, Alexa Fluor 568 PFFs 10 μg/ml, 7 days, against human PFFs in assay [2] is more than 2 fold.
